# PubChem BioAssay AID2751 (The Scripps Research Institute Molecular Screening Center, 2010)
# Protein sequences, listed by entry. Tags and fused reporters are not part of them.
# UniProt Q4J6C6, whole entry: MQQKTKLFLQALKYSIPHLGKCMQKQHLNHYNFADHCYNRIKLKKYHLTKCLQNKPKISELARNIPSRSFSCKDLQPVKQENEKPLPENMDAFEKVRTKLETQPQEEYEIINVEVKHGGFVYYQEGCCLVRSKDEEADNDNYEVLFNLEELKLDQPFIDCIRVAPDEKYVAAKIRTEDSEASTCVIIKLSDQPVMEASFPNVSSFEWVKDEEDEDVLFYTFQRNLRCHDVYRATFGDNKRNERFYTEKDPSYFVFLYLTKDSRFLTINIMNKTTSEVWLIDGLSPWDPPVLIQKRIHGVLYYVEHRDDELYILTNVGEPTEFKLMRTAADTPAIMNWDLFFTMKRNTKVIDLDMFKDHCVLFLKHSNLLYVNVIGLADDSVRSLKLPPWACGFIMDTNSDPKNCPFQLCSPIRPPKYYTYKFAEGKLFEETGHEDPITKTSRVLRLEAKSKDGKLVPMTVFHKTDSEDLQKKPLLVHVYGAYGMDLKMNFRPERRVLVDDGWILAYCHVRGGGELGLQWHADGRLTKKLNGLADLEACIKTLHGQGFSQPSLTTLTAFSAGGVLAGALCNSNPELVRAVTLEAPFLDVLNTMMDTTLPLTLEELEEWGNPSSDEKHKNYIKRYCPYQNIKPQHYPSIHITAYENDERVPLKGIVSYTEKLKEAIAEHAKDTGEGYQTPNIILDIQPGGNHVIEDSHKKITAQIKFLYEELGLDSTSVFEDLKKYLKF
# This is a selection; strong and weak results do not stand in their true shares. Active and inactive are the calls of the source. No stated cut-off is given here; in the data, active means inhibition above about 43%; inactive means the rest.
# Target: Prolyl endopeptidase-like (Homo sapiens) (UniProt Q4J6C6)
# Experiment: PREPL enzyme inhibitors, primary screen, biochemical, fluorescence polarization (AID 2751);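 further: 0% = enzyme with DMSO and 100% = wells lacking enzyme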
# Conditions: recombinant PREPL, fluorescence polarization activity-based probe; at 5.96 µM; stronger effect = higher value
row,SMILES,inhibition
1,O=C(NCC1(N2CCCCC2)CCCCC1)c1ccc(OC(F)F)cc1,inactive: 13.8%
2,O=C(NCC1(N2CCCCC2)CCCCC1)c1cccc([N+](=O)[O-])c1,inactive: 12.9%
3,N#CC1(Nc2ccccc2)CCN(CCc2ccccc2)CC1,inactive: 8.87%
4,CCN1CCC(Nc2ccc(Cl)cc2)CC1,inactive: -0.27%
5,O=C(NCC1(N2CCCCC2)CCCCC1)c1cccc(C(F)(F)F)c1,inactive: -3.54%
6,COc1ccc(NC2CCN(C(=O)OC(C)(C)C)CC2)cc1,inactive: 10.4%
7,CN1CCN(CCOC(=O)C(O)(c2ccccc2)c2ccccc2)CC1,inactive: -1.04%
8,O=C(NCC1(N2CCOCC2)CCCCC1)c1cc(=O)[nH]c2ccccc12,inactive: -10.9%
9,COc1cc(C(=O)NCC2(N3CCCCC3)CCCCC2)ccc1OC(F)F,inactive: -2.2%
10,CN(C)c1cccc(C(=O)NCC2(N3CCCCC3)CCCCC2)c1,inactive: 14.2%
11,COc1ccc(CN(CCCl)CCCl)cc1Cl,inactive: -6.84%
12,CC(C)c1ccc(NC2CCN(C(=O)OC(C)(C)C)CC2)cc1,inactive: 3.79%
13,O=C(NCC1(N2CCOCC2)CCCCC1)c1cc(F)c(F)cc1Cl,inactive: 8.96%
14,COc1cc(OC)c(C(=O)NCC2(N(C)C)CCCCC2)cc1OC,inactive: 17.6%
15,CN1CCC(Nc2cccc(F)c2)CC1,inactive: -3.24%
16,O=C(NCC1(N2CCCCC2)CCCCC1)c1cncc(Br)c1,inactive: 15.2%
17,O=C(NCC1(N2CCCCC2)CCCCC1)c1cccs1,inactive: 15.2%
18,O=C(NCC1(N2CCCCC2)CCCCC1)c1ccc(=O)[nH]c1,inactive: 14%
19,CC(C)(C)OC(=O)N1CCC(N(C(=O)c2ccccc2)c2ccc(F)cc2)CC1,inactive: -4.79%
20,COc1ccc(C(=O)NCC2(N3CCCCC3)CCCCC2)c(OC)c1OC,inactive: 10.6%
21,COc1ccc(C(=O)NCC2(N3CCCCC3)CCCCC2)cc1,inactive: 15.9%
22,CSc1ccccc1C(=O)NCC1(N2CCCCC2)CCCCC1,inactive: 10.8%
23,O=C(NCC1(N2CCOCC2)CCCCC1)c1cc2ccccc2o1,inactive: 27.3%
24,Cc1cc(C)cc(N(C(=O)c2ccccc2)C2CCN(C(=O)OC(C)(C)C)CC2)c1,inactive: 13.4%
25,O=C(NCC1(N2CCCCC2)CCCCC1)c1ccc(Cl)nc1,inactive: 6.48%
26,CCOC(=O)N1CCC(Nc2ccc(OC)cc2)CC1,inactive: 5.06%
27,COc1ccc(Cl)cc1C(=O)NCC1(N2CCOCC2)CCCCC1,inactive: 1.45%
28,N#CC1(Nc2ccccc2)CCN(Cc2ccccc2)CC1,inactive: 9.66%
